Measured values from ChEMBL document CHEMBL5543128, “Recent Discovery and Development of Inhibitors that Target CDK9 and Their Therapeutic Indications” (J Med Chem, 2024).

Protein sequences, listed by entry. Tags and fused reporters are not part of them.
UniProt P50750, whole entry: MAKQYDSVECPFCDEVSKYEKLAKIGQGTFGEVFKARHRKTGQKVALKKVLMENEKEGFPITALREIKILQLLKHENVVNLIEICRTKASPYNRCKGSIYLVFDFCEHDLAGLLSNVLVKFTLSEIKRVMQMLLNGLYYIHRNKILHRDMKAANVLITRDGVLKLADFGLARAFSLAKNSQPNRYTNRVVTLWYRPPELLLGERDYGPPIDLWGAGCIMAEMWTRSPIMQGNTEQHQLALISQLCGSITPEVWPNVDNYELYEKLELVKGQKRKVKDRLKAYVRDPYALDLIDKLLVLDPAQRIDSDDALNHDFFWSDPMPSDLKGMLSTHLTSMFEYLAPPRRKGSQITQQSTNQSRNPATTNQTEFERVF

Target: CDK9/cyclin T1 (Homo sapiens, UniProt P50750)
Assay: Inhibition of CDK9/cyclin T1 (unknown origin)
Format: protein-complex assay

Question: `O=c1cc(-c2cccc(O)c2)oc2c1ccc1occc12` was tested. Which IC50 did it give?
Answer: Its IC50 is 930 nM.
